According to ChEMBL document CHEMBL1134447 (J Med Chem, 2001):

Tests used:
[1] = Solubility (phosphate buffered saline); details: buffer
[2] = Partition coefficient (logD7.4); details: octanol/water, pH 7.4

SMILES | S [1] [µM] | logD [2]
O=[N+]([O-])c1cc2c(cc1CN1CCC(n3c(O)nc4ccccc43)CC1)OCO2 | < 10 | 2.4
Cc1ccc2[nH]c(=O)n(C3CCN(Cc4cc5c(cc4Cl)OCO5)CC3)c2c1 | < 10 | 2.6

This is a selection: effects in other tests are not listed, and their absence says nothing.
